Laboratory results: paper PMC4243247, “The DUSP–Ubl domain of USP4 enhances its catalytic efficiency by promoting ubiquitin exchange” (Nature Communications, 2014)
Values belong to the binder of their own block, whether it stands above or below them.

Experiments:
Details in all cases: both partners purified
[1] = biological target: T1, N-terminally TAMRA-labelled ubiquitin (UniProt P0CG48 1-76, TAMRA on the N-terminus); assay: fluorescence polarisation; stopped-flow, association: equal volumes of USP4 (100–1,000 nM) and TAMRA-ubiquitin rapidly mixed; 20 °C; 20 mM HEPES pH 7.5, 150 mM NaCl, 5 mM DTT, 0.05% Tween 20; single exponential, kon as slope of Kobs against USP4 concentration
T1 construct: ubiquitin, the cut product of the ubiquitin precursors; also called TAMRAUb; TAMRA-Ubiquitin

[2] = biological target: T1, N-terminally TAMRA-labelled ubiquitin; assay: fluorescence polarisation; stopped-flow, dissociation: USP4 constructs (12.5–250 nM) incubated with 2.5 nM TAMRA-ubiquitin 10–30 min, mixed with equal volume of 2.5 μM non-labelled ubiquitin; 20 °C; 20 mM HEPES pH 7.5, 150 mM NaCl, 5 mM DTT, 0.05% Tween 20; global fit to a two-phase decay (k_slow, k_fast)
[3] = biological target: T1, N-terminally TAMRA-labelled ubiquitin; assay: fluorescence polarisation; equilibrium: different concentrations of USP4 with 2.5 nM TAMRA-ubiquitin; same setup as the Ub–Rhod assays (25 °C, 20 mM HEPES pH 7.5, 150 mM NaCl, 5 mM DTT, 0.05% Tween 20); one-site binding model accounting for ligand depletion

kon [1]: 74000 ± 17000 M⁻¹ s⁻¹
k_fast (dissociation, fast component) [2]: 0.011 ± 0.0008 s⁻¹
k_slow (dissociation, slow component) [2]: 0.0013 ± 1e-05 s⁻¹
Kd [3]: 44 ± 7 nM
B1: USP4 catalytic domain (USP4 CD, residues 296–925) (domain or fragment, human, UniProt Q13107 296-925, looked up)
chain: HIQPGLCGLGNLGNTCFMNSALQCLSNTAPLTDYFLKDEYEAEINRDNPLGMKGEIAEAYAELIKQMWSGRDAHVAPRMFKTQVGRFAPQFSGYQQQDSQELLAFLLDGLHEDLNRVKKKPYLELKDANGRPDAVVAKEAWENHRLRNDSVIVDTFHGLFKSTLVCPECAKVSVTFDPFCYLTLPLPLKKDRVMEVFLVPADPHCRPTQYRVTVPLMGAVSDLCEALSRLSGIAAENMVVADVYNHRFHKIFQMDEGLNHIMPRDDIFVYEVCSTSVDGSECVTLPVYFRERKSRPSSTSSASALYGQPLLLSVPKHKLTLESLYQAVCDRISRYVKQPLPDEFGSSPLEPGACNGSRNSCEGEDEEEMEHQEEGKEQLSETEGSGEDEPGNDPSETTQKKIKGQPCPKRLFTFSLVNSYGTADINSLAADGKLLKLNSRSTLAMDWDSETRRLYYDEQESEAYEKHVSMLQPQKKKKTTVALRDCIELFTTMETLGEHDPWYCPNCKKHQQATKKFDLWSLPKILVVHLKRFSYNRYWRDKLDTVVEFPIRGLNMSEFVCNLSARPYVYDLIAVSNHYGAMGVGHYTAYAKNKLNGKWYYFDDSNVSLASEDQIVTKAAYVLFYQRRDD
notes: USP4, human, catalytic domain with the insert, residues 296-925; unlabelled form, used in the fluorescence polarisation and activity assays

kon [1]: 5.1e+06 ± 230000 M⁻¹ s⁻¹
k_fast (dissociation, fast component) [2]: 0.55 ± 0.016 s⁻¹
k_slow (dissociation, slow component) [2]: 0.053 ± 0.003 s⁻¹
Kd [3]: 92 ± 21 nM
B2: USP4 FL (residues 8–925), isoform 1 (enzyme, human, UniProt Q13107 8-925, looked up)
chain: RERPDAETQKSELGPLMRTTLQRGAQWYLIDSRWFKQWKKYVGFDSWDMYNVGEHNLFPGPIDNSGLFSDPESQTLKEHLIDELDYVLVPTEAWNKLLNWYGCVEGQQPIVRKVVEHGLFVKHCKVEVYLLELKLCENSDPTNVLSCHFSKADTIATIEKEMRKLFNIPAERETRLWNKYMSNTYEQLSKLDNTVQDAGLYQGQVLVIEPQNEDGTWPRQTLQSKSSTAPSRNFTTSPKSSASPYSSVSASLIANGDSTSTCGMHSSGVSRGGSGFSASYNCQEPPSSHIQPGLCGLGNLGNTCFMNSALQCLSNTAPLTDYFLKDEYEAEINRDNPLGMKGEIAEAYAELIKQMWSGRDAHVAPRMFKTQVGRFAPQFSGYQQQDSQELLAFLLDGLHEDLNRVKKKPYLELKDANGRPDAVVAKEAWENHRLRNDSVIVDTFHGLFKSTLVCPECAKVSVTFDPFCYLTLPLPLKKDRVMEVFLVPADPHCRPTQYRVTVPLMGAVSDLCEALSRLSGIAAENMVVADVYNHRFHKIFQMDEGLNHIMPRDDIFVYEVCSTSVDGSECVTLPVYFRERKSRPSSTSSASALYGQPLLLSVPKHKLTLESLYQAVCDRISRYVKQPLPDEFGSSPLEPGACNGSRNSCEGEDEEEMEHQEEGKEQLSETEGSGEDEPGNDPSETTQKKIKGQPCPKRLFTFSLVNSYGTADINSLAADGKLLKLNSRSTLAMDWDSETRRLYYDEQESEAYEKHVSMLQPQKKKKTTVALRDCIELFTTMETLGEHDPWYCPNCKKHQQATKKFDLWSLPKILVVHLKRFSYNRYWRDKLDTVVEFPIRGLNMSEFVCNLSARPYVYDLIAVSNHYGAMGVGHYTAYAKNKLNGKWYYFDDSNVSLASEDQIVTKAAYVLFYQRRDD
notes: ubiquitin-specific protease USP4, human, residues 8-925, isoform 1; pET-NKI His-3C-LIC vector; His tag removed with 3C protease; also called USP4 FL isof; full-length USP4
